By Ki is commonly meant a measure of affinity in units of concentration, obtained from inhibition or displacement.

Protein sequences, listed by entry. Tags and fused reporters are not part of them.
UniProt P18090, whole entry: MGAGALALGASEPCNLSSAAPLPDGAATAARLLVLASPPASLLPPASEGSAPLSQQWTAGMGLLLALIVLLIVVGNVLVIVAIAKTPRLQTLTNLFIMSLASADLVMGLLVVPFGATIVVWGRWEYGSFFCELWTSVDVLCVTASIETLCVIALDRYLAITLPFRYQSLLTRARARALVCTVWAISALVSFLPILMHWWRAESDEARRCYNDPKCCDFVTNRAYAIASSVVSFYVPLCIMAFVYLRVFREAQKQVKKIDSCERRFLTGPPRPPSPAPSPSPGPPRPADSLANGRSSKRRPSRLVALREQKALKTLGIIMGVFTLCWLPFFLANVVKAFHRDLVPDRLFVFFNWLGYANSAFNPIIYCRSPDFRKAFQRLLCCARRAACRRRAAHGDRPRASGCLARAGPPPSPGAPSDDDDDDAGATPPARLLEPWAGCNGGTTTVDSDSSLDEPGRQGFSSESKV

Molecules are shown by their SMILES. Structures can show the parent of a compound that is named as a salt.

One experiment has as its target β2-AR (Homo sapiens (Human), UniProt P07550). The conditions noted are these: β2-AR binding data used for CoMFA.
Another experiment has as its target β1-AR (Rattus norvegicus (Rat), UniProt P18090). The conditions noted are these: read-out: Ki β1.

`O=C(O)/C=C/C(=O)O.Oc1cc(O)cc([C@H](O)CNCCc2ccccc2)c1` [(S)-7, (S)-(−)-5-(1-hydroxy-2-phenethylaminoethyl)-1,3-benzenediol fumarate]: the “pKd Measured” value at β2-AR is on record as 4.69.

For the compound `C[C@@H](Cc1cccc2ccccc12)NC[C@@H](O)c1cc(O)cc(O)c1` [(S,S)-5, (S,S)-(+)-5-{1-hydroxy-2-[1-methyl-2-(1-naphthyl)ethylamino]ethyl}-1,3-benzenediol fumarate], on β1-AR, the Ki was > 100 µM. `O=C(O)/C=C/C(=O)O.Oc1cc(O)cc([C@@H](O)CNCCc2ccccc2)c1` [(R)-7, (R)-(−)-5-(1-Hydroxy-2-phenethylaminoethyl)-1,3-benzenediol fumarate]: the “pKd Measured” value on β2-AR amounted to 4.98.

(Values after patent US9492405B2 (dated 2016).)
